Assay results taken from publication PMC11443169 (Life Science Alliance, 2024).

System: rat hippocampus

| Substance | Half-life (in vivo half-lives of Aβx-42) |
| --- | --- |
| Aβ4F-42: amino-terminal variant of Aβx-42 starting with Phe at position 4, internally radiolabeled | 10.51 min |
| Aβ2A-42: amino-terminal variant of Aβx-42 starting with Ala at position 2, internally radiolabeled | 10.77 min |
| Aβ3E-42: amino-terminal variant of Aβx-42 starting with Glu at position 3, internally radiolabeled | 12.51 min |
